US7709454B2, “Methods and compositions for inhibiting tumorigenesis” (New York University, priority 1997, dated 2010)

Experiments:
[1] = test system: mouse embryonic fibroblasts (MEF); conditions: control
Method: (§1) WM-115, SK-MEL-2 and COS7 cell lines (ATCC) were grown according to the specifications of the provider. The primary Me-3 melanoma (Stecca, B. et al. Melanocyte proliferation and melanoma growth, recurrence and metastasis require sustained SONIC HEDGEHOG-GLI signaling. Submitted. (2006)) was grown in E-MEM with 10% FBS (Hyclone), 1 mM sodium pyruvate (GIBCO) and 1 ng/ml EGF (GIBCO). Proliferating human melanocytes from foreskin (Promocell) were grown in M2 media (Promocell). Melanomas from ±6 month-old Tyr→NRAS^Q61K; Ink4a^−/− mice on a light coat color Dct^−/− background^13 were collected from the skin and lymph nodes. Tumors were dissociated and grown in E-MEM with 10% FBS, 1 mM sodium pyruvate (GIBCO) and 1 ng/ml EGF (GIBCO). Mouse embryonic fibroblasts (MEFs) were prepared from E14.5 Swiss Webster mouse embryos and grown in DMEM with 10% FBS.
(§2) Forskolin (FK) and 1,9-dideoxyforskolin (ddFK; Sigma) were used at 50 μM. MEK-1 (U0126; Promega), and AKT (SH6; Alexis corporation) inhibitors were used at 1 and 40 μM, respectively, dissolved in DMSO. U0126 and SH6 were used for 1 h, 48 h post-transfection. Leptomycin B (LMB; Sigma) was used at 5 nM for 6 h, 48 h post-transfection. BrdU (Sigma) was pulsed at 4 μg/ml for 2 h before fixation followed by immunodetection with anti-BrdU antibodies (BD Biosciences). The number of viable cells was assessed by Trypan blue exclusion (Promega). […]

[2] = test system: MeWo/LacZ lung metastases; conditions: IP 10 mg/kg/twice a day for 45 days, started 2 weeks after i.v. cells
[3] = test system: HRAS (V12)-transfected WM-115, SK-MEL-2 and SK-MEL-5; assay: oncogenic HRAS-transfection enhanced BrdU incorporation, treatment with inhibitors; assay type: cell-based, human; conditions: 48 h treatment
Method: (§3) Commercial N-SHH (R&D Systems) was used at 100 nM. 5E1 anti-SHH blocking antibody (Hybridoma Bank, University of Iowa) was used at 10 μg/ml. Forskolin (FK) and 1,9-dideoxyforskolin (ddFK; Sigma) were used at 50 μM. […] MEK-1 (U0126; Promega), EGFR (AG1478; Biosource) and AKT (SH6; Alexis corporation) inhibitors were used at 1, 10, and 40 μM, respectively, dissolved in DMSO. Drug treatments were for 48 h in 2.5% serum. BrdU (Sigma) was pulsed at 4 μg/ml for 2 h before fixation followed by immunodetection with anti-BrdU antibodies (BD Biosciences). The number of viable cells was assessed by Trypan blue exclusion (Promega).

[4] = test system: melanoma primary cultures and cell lines; conditions: 48 h cyclopamine treatment; fraction of cultures tested
Method: as §3

[5] = test system: NRAS^Q61K mouse melanoma primary cultures; assay: BrdU incorporation in primary cultures of Tyr-NRAS^Q61K; Ink4a−/− mouse melanomas; assay type: cell-based; conditions: 48 h
Method: as §1, §2

[6] = test system: Proliferating melanocytes from human foreskin; assay: BrdU incorporation in proliferating melanocytes; assay type: cell-based; conditions: cyclopamine over tomatidine
Method: Human foreskin melanocytes (Promocell) were grown in serum-free M2 medium (Promocell). WM-115, SK-MEL-2, SK-MEL-5, MeWo and COS7 cell lines (ATCC) were grown as specified. Tumors were chopped, incubated in E-MEM (Sigma) containing collagenase A (300 U/ml, Worthington) and hyaluronidase (100 U/ml, Sigma), mechanically dissociated and plated in E-MEM with 10% FBS, 1 mM sodium pyruvate (GIBCO) and 1 ng/ml EGF (GIBCO). […] All melanoma samples and BCC were obtained following approved protocols.
as §3

SMILES: CC1=C2C[C@H]3[C@@H](CC=C4C[C@@H](O)CC[C@@]43C)[C@@H]2CC[C@]12O[C@@H]1C[C@H](C)CN[C@H]1[C@H]2C [cyclopamine]
- proliferation of mouse embryonic fibroblasts [1]: did not affect
- cyclopamine-treated mice without a single blue cell in their lungs [2]: 6/7
- effect on oncogenic RAS-enhanced proliferation [3]: reversed
- cultures with increase in activated Caspase-3 immunoreactivity [4]: ⅗
- proliferation of primary cultures ([5]; 5 μM): one from each mouse also responded
- proliferation of all 12 primary cultures ([5]; 10 μM): inhibited
- decrease in proliferation [6]: 2 fold
